We go through three compounds from US9492405B2 (dated 2016).

Assay [1] deals with β2-AR (Homo sapiens (Human), UniProt P07550). The settings on record: read-out: Ki β2.
Assay [2] deals with 1321N1 cells. Put plainly: Inhibition of mitogenesis, [3H]-thymidine incorporation in 1321N1 cells. The settings on record: read-out: Mitogenesis Inhibition IC50, mean ± SD, n=4. The assay is classed as cell-based, human. (Uptake of a labelled nucleoside into DNA is a usual measure of proliferation.)

On to `O=C(O)/C=C/C(=O)O.Oc1cc(O)cc([C@@H](O)CNCCc2ccccc2)c1` [(R)-7, (R)-(−)-5-(1-Hydroxy-2-phenethylaminoethyl)-1,3-benzenediol fumarate], for which the Ki in assay [1] was 10.5 ± 1.46 µM.
Still for that read-out and setting: the figure for `O=C(O)/C=C/C(=O)O.Oc1cc(O)cc([C@H](O)CNCCc2ccccc2)c1` [(S)-7, (S)-(−)-5-(1-hydroxy-2-phenethylaminoethyl)-1,3-benzenediol fumarate] is 20.6 ± 3.72 µM.
As for `CC(C)NC[C@H](O)c1ccc(O)c(O)c1` [(R)-isoproterenol, reference compound], the IC50 in assay [2] was found to be 0.05 nM.

A word on the Ki: it is a measure of affinity in units of concentration, obtained from inhibition or displacement. The IC50 is the concentration at which inhibition is half-maximal.
